pKi: −log10 of the molar value. Where “and” joins values, the source holds several entries; their conditions need not be identical. Equal values may be shown once.
Assays:
[1] = biological target: T1, Amyloid-beta precursor protein (Homo sapiens, UniProt P05067); assay: Inhibition constant for amyloid beta compared to [125I]TZDM
Outline: (§1)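 Aβ(1-40) or Aβ(1-42) aggregated at 0.5 or 0.25 mg/mL respectively in pH 7.4 buffer (10 mM sodium phosphate, 1 mM EDTA), 37 °C, 36-42 h with shaking. Competition against ¹²⁵I radioligand with fibrils 10-50 nM (final), 10% EtOH, 1 mL. Incubation 3 h room temperature. Bound ligand collected by GF/B filtration, γ-counted. Ki by nonlinear regression. Mean ± SEM, three experiments in duplicate.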

Chains of the proteins cited; added tags and fusions are not shown.
UniProt P05067, whole entry: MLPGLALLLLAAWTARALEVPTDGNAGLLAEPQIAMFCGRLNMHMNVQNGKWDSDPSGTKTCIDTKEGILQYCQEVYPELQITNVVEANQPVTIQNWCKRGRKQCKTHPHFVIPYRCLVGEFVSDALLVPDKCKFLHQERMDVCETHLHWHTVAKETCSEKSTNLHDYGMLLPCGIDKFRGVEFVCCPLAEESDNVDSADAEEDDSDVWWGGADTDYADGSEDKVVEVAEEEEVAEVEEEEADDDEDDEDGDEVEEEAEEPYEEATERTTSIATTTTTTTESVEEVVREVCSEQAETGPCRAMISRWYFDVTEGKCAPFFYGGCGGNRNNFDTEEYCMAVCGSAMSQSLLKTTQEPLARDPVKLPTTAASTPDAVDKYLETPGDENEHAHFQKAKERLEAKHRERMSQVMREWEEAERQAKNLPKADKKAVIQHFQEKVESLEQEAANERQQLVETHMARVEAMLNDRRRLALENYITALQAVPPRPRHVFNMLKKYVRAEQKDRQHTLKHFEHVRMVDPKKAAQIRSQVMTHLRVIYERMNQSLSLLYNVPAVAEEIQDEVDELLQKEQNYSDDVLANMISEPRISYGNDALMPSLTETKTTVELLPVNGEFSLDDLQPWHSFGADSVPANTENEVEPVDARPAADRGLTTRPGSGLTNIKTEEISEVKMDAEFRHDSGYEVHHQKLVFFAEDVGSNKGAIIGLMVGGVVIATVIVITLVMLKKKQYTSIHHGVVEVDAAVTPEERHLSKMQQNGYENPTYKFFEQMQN

[2] = biological target: T1, Amyloid-beta precursor protein; assay: Inhibition constant for aggregates of amyloid beta compared to [125I]IMSB; outline: as §1

- pKi [1]: 6.94 and 6.53
- pKi [2]: < 5.05
SMILES: Cc1ccc2c(c1)sc(-c1ccc(N(C)C)cc1)[n+]2C
